The numbers were not newly measured in US12606918B2, “Production of sanitizing fluid using in situ electrolysis” (APPLIED PHAGE GMBH, priority 2024, dated 2026), which cites them from elsewhere.

Each structure is given as a SMILES string.

The conditions of this data set: as ClO3^−.

As for `[O-][Cl+2]([O-])O` [chlorate], the “Arfd (acute reference dose)” value was 0.0024 mg/kg BW·day.
